In PubChem BioAssay AID588352 (The Scripps Research Institute Molecular Screening Center, 2011):
Only a part is listed here, and it is no random draw. Active and inactive are the calls of the source.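 Rule for the calls: active = inhibition above a per-campaign cutoff, the mean of all compounds plus 3 SD (cut at about 60% in these data); inactive = the rest.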

Amino acid sequences for entries named in this document (tags omitted).
UniProt Q9Y6Q9, whole entry: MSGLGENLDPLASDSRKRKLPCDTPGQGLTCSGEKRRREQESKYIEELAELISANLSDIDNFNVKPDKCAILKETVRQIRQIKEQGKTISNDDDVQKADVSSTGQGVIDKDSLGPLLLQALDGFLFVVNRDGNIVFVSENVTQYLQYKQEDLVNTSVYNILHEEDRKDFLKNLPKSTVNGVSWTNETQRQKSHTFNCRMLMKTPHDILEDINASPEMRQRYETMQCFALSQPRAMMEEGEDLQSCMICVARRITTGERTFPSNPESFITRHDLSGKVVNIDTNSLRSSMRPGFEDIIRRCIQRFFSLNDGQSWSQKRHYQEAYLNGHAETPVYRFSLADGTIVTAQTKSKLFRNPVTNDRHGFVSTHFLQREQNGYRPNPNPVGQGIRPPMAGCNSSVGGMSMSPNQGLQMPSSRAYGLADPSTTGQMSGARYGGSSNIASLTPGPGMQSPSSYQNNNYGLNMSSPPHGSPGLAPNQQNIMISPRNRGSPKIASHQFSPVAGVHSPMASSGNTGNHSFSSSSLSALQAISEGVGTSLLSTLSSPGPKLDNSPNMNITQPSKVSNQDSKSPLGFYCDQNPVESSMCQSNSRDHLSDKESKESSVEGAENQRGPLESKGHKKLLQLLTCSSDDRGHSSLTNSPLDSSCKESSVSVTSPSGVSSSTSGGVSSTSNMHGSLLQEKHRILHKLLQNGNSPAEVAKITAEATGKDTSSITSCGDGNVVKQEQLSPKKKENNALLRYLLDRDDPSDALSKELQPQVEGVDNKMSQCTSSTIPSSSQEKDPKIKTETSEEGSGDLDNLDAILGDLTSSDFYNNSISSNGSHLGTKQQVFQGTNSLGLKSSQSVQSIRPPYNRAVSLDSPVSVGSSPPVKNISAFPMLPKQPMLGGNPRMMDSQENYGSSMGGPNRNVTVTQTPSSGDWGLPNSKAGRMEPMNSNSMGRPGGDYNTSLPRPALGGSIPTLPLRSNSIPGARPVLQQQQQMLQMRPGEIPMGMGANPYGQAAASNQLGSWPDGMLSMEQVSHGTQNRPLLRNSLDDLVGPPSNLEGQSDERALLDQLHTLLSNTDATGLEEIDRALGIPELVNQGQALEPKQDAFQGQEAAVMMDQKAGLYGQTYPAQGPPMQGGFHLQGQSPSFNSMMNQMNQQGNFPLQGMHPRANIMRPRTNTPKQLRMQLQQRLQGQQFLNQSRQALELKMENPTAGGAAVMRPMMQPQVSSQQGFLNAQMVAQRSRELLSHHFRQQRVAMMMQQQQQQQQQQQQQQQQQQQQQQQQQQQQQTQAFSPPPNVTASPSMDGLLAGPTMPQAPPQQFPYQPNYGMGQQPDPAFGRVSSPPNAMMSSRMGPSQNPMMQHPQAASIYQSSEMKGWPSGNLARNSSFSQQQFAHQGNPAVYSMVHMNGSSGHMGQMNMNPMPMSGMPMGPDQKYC

Molecular target: Nuclear receptor coactivator 3 (Homo sapiens) (UniProt Q9Y6Q9)
Test: NCOA3 GAL4-fusion reporter inhibition – cell-based, luminescence, primary screen (AID 588352);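 note: 0% = DMSO-treated cells and 100% = gossypol-treated cells at 36 µM; higher means less SRC3-driven luciferase light from the GAL4 reporter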
Settings: HEK293 GAL4-SRC3 luciferase reporter, at 3.6 µM, hits give high values

Structure (SMILES) | inhibition
CCC(=O)N(c1ccccc1)C1(COC)CCN(CCc2cccs2)CC1 | inactive: 7.23%
CCC(=O)N(c1ccccc1)C1(COC)CCN(CCn2nnn(CC)c2=O)CC1 | inactive: -16.6%
